# Data taken from article PMC10993414, “Water Quality Monitoring with the Multiplexed Assay MitoOxTox for Mitochondrial Toxicity, Oxidative Stress Response, and Cytotoxicity in AREc32 Cells” (Environmental Science & Technology, 2024).
# Test system: mitochondrial membrane potential (MMP) in AREc32 cells
# Assay: Disruption of mitochondrial membrane potential (m-MPI red/green ratio), MitoOxTox
# Conditions: specificity ratio of MMP effect: IC10 (ImageXpress)/EC10 (eq 4)
smiles,measurement,value
Cc1cc(O)ccc1Cl [4-Chloro-3-methylphenol],SRcytotoxicity,11.9
